Experimental data taken from US20200061076A1, “METHODS OF TREATING LEUKODYSTROPHIES” (Ramot at Tel-Aviv University Ltd., priority 2017, published 2020).

System: Mut MEFs
Assay: JC1 staining of intact and damaged mitochondria (mitochondrial membrane potential)
Assay type: cell-based, mouse
Settings: Mutant MEFs, 1 μM, 24 hours (FIG. 12)
Description: Mut MEFs were treated or not for 6 hours with the indicated concentrations of p8G5 (blue), pre084 (purple), or NE-100 (yellow), washed and stained with Hoechst and JC1 for 30 minutes followed by image acquisition using In-Cell-Analyzer-2000. Shown is the % of red/green JC1 integrated intensity per cell relative to that in untreated WT cells of 2-4 independent experiments.
Following, the cells were washed, stained with Hoechst and JC-1 fluorescent dyes for 30 minutes, and subjected to image acquisition using In-Cell-Analyzer-2000. Shown is cellular content of damaged mitochondria (JC1 green channel, red bars), intact mitochondria (JC1 red channel, green bars) and damaged to intact mitochondria ratio (blue bars). Values of control (vehicle treated) cells was set to 100%.
Mut MEFs were treated with the indicated compounds at 10 μM for 24 hours followed by staining with fluorogenic dyes and image-based single-cell analysis. […]
Mut MEFs were incubated or not for 24 hours with 10 μM of the indicated compounds, washed and stained with Hoechst and JC1 followed by image-based single-cell analysis. […] Mut MEFs were incubated or not with the indicated concentrations of the indicated compounds for 2 hours followed by addition of 50 ng/ml Tunicamycin (Tun) for additional 22 hours, stained with Crystal Violet followed by measurement of absorbance at 570 nm. […]

CC1=C2C[C@H]3[C@@H](CC=C4C[C@@H](O)CC[C@@]43C)[C@@H]2CC[C@]12O[C@@H]1C[C@H](C)CN[C@H]1[C@H]2C [Cyclopamine, reference compound] was tested, and the “ratio of damaged to intact mitochondria” value was “decreased ratio of damaged to intact mitochondria”.
